Test [1] concerns the target T1, Amine oxidase [copper-containing] 3 (Rattus norvegicus, UniProt O08590).
T1 sequence (O08590 whole entry): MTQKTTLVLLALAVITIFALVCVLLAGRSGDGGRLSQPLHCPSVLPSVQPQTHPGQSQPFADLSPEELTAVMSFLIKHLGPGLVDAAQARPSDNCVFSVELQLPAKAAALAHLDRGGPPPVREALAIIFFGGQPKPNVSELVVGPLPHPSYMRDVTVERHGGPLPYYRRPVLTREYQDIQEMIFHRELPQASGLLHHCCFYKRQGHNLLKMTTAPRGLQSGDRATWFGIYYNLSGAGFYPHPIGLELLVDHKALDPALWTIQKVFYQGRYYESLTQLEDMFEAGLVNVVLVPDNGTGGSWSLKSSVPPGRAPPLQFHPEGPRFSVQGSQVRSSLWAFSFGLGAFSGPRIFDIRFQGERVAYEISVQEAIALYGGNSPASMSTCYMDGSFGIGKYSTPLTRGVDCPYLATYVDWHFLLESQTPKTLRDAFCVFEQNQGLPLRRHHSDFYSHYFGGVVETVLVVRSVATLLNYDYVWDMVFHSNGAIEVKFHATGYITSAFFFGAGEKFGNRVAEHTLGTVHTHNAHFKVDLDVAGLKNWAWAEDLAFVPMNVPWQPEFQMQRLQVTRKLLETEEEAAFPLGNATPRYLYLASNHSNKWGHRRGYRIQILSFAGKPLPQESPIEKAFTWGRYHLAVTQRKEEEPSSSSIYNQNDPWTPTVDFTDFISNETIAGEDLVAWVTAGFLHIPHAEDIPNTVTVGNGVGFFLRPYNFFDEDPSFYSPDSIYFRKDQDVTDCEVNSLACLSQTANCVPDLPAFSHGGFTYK
Nature of the test: Inhibition of rat VAP-1 expressed in CHO cells preincubated for 20 mins followed by [14C]-benzylamine addition measured after 1 hr by scintillation spectrometric analysis. The class given is ADME, cell-based.

In test [2] the target is T2, Amine oxidase [copper-containing] 3 (Homo sapiens, UniProt Q16853).
T2 sequence (Q16853 whole entry): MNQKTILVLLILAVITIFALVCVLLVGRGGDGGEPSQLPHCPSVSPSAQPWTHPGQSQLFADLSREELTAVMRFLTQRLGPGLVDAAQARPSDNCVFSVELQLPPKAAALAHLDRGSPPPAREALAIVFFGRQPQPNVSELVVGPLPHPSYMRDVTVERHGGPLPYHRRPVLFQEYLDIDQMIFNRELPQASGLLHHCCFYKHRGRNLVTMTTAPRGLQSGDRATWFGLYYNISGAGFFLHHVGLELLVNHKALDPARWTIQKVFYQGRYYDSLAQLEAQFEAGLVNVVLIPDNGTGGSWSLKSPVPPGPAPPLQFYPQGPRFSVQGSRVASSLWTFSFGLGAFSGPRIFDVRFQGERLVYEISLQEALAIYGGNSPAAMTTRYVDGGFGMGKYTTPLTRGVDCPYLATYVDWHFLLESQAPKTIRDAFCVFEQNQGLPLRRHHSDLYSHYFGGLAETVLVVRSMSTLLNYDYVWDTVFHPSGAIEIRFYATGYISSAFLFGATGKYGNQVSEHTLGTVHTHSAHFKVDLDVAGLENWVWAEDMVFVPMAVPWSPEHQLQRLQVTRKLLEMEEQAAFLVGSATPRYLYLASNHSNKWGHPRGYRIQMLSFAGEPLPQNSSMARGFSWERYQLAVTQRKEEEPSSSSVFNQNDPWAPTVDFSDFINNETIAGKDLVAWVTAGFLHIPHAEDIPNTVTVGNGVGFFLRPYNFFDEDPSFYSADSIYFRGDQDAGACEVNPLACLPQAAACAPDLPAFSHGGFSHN
Nature of the test: Inhibition of human VAP-1 expressed in CHO cells preincubated for 20 mins followed by [14C]-benzylamine addition measured after 1 hr by scintillation spectrometric analysis. The test is classed as cell-based.

pIC50: −log10 of the molar value.

The term pIC50 denotes the negative decadic logarithm of the IC50, by convention in mol/L. `Cc1ccc(OC2CN(c3cccc(COC(=O)NC(=N)N)c3F)C2)cn1.O=C(O)C(O)C(O)C(=O)O` gave a pIC50 in test [1] of 8.28.

Regarding `N=C(N)NC(=O)OCc1cccc(N2CCN(c3cccnc3)CC2)c1F.O=C(O)C(O)C(O)C(=O)O`, the pIC50 in test [2] is 7.77.
